From US11007355B2, “Drug delivery devices and methods for treatment of bladder cancer with oxaliplatin” (TARIS Biomedical LLC, priority 2012, dated 2021) come the findings set out here.

For one data set, the system named is male Sprague Dawley rats. The settings on record: 72-hour bladder perfusion, 0.308 mg/mL; animal 49. The method, then:
(§1) Blood, urine, and tissue samples were collected and analyzed for drug content.
(§2) The perfusate formulation concentration was 0.308 mg/mL. Dose (mg/kg) was calculated as (Dose administered (g) x formulation concentration (mg/mL))/Animal Wt. (kg). The drug solutions were dosed over a 72-hour period into the non-fasted animal's bladder by intra-urinary bladder cannula using an infusion pump.
(§3) Whole blood samples were taken via tailnick or jugular vein cannula at the following time points following the start of perfusion: 0, 4, 8, 24, and 48 hours. Urine was collected pre-dose and for 0-24, 24-48, and 48-72-hour periods post dose.
(§4) Following the 72-hour infusion period the animals were sacrificed, terminal blood samples were taken via the abdominal aorta, and bladder, prostate, ureter, and kidney tissues were collected, weighed, and visually inspected for evidence of tolerability/reaction from exposure to the drug.

Data set [1] in a line: Oxaliplatin tissue permeability: platinum in blood, urine and tissues after 72-hour bladder perfusion (Example 2). As to conditions: terminal concentrations, FIG. 11. How it is done:
as §1, §2, §3, §4

Turning to `O=C1[O][Pt]2([NH][C@@H]3CCCC[C@H]3[NH]2)[O]C1=O` [oxaliplatin], the “Observations at necropsy: remaining urothelium” value in the data set on male Sprague Dawley rats is reported as “otherwise normal”. Besides, the “bladder:urine ratio” value in data set [1] is given as 10%.
